Measured values as given in US12139488B2, “Pyrido[3,2-d]pyrimidine compounds uses thereof for treating a proliferative disease” (Universite de Montreal, priority 2021, dated 2024).

These compounds were tested on pERK in HCT-116 cells (KRAS G13D) (assay: Phospho-ERK inhibition (AlphaLISA SureFire Ultra p-ERK 1/2), HCT116). Conditions: lowest % inhibition value of the IC50 curve, HCT116.
Method: All cancer cell lines (A375, A101D, A2058, RKO, HT29 SK-MEL 30, IPC298, HepG2, HCT-116, Lovo, SWV620, SW480, NCI-H358, NCI-H2122, Calu-6, NCIH2087, NCIH1755, NCIH1666 and Mewo) were obtained from ATCC and cultured in RPMI-1640 medium (Gibco) supplemented with 5% heat inactivated fetal bovine serum (FBS, Wisent) at 37° C. under 5% CO2. Cells were maintained in T175 flasks (Greiner). They were passaged by removing the culture medium, washing once in 10 mL of room temperature Phosphate Buffered Saline (PBS; Wisent) and incubating at 37° C. with 2 mL of 0.05% Trypsin (Thermo-Fisher). Trypsin was then inactivated by adding complete growth medium and the cells were then replated in a T175 culture dish at the appropriate dilution. All cell lines were routinely tested for mycoplasma contamination. Tissue type and mutational status of each cell line can be found in Table B.
AlphaLISA® SureFire® Ultra™ p-ERK 1/2 (Thr202/Tyr204) analysis was conducted on cells plated in 100 μL of complete RPMI-1640 growth medium in 96-well flat-bottomed transparent dishes (Costar) at a density indicated in Table C. Cells were maintained overnight at 37° C. under 5% CO2 before treatment with compounds' dilution series for one hour. The cell density in cells/cm^2 corresponds to cell number divided by the area of one well of a 96-well plate ([…]).
In a dilution series 100 μL/well of test substance dilution prepared in complete RPMI-1640 growth media was added to the cells. The dilution series is selected so that ten concentrations cover a range from 10 μM to 0.33 nM. If necessary the initial concentration of 10 μM is increased to 100 μM or lowered to 1 μM (as in the case of A375 and H1666 cells, which are generally more sensitive to the compounds) and further dilution is carried out accordingly. The final concentration of DMSO in the assay is set at 0.5%.
After treatment, media was removed and cells were lysed in 50 μL of 1× AlphaScreen Ultra Lysis Buffer (Perkin Elmer). The AlphaLISA® SureFire® Ultra™ p-ERK 1/2 (Thr202/Tyr2O4) (PerkinElmer) reactions were performed with 5 μL of cell lysate according to the manufacturer's specifications in 384-well proxyplates (Perkin Elmer) followed by overnight incubation of the reactions at room temperature in a humidified chamber. After completion of the reactions, the signals were recorded on an EnVision plate reader (Perkin Elmer) using built in AlphaLISA® settings.
The effect of each compound dilution on the pERK signal was expressed in % inhibition and calculated as follows. An internal 100% inhibition control ([…] trametinib, cat #HY-10999; MedChem Express; CAS #871700-17-3) was included in each plate and used as a measure of pERK background. First, the value obtained for trametinib was subtracted from each data point. The average of DMSO (vehicle) controls (set as 0% inhibition) was established and used to calculate % inhibition: % inhibition=100*(1-((pERK signalcompound)/(pERK signalDMSO)))
The ability of each compound to inhibit pERK signal was expressed as an IC50 value obtained by plotting the inhibition values for each data point of a dilution series and fitting the obtained curves using a log(agonist) versus response-variable slope (four parameters) function using GraphPadPrism (V7.0) or Dotmatics Screening Ultra platform.
When present, paradoxical pERK induction is inferred from the negative % inhibition values observed in the pERK IC50 curves of a compound.

SMILES | HCT116 pERK Ymin % [%]
Cc1ccc(S(=O)(=O)Nc2ccc(F)c(Nc3ncnc4ccc(-n5cnc6ccccc65)nc34)c2F)c(C)c1F | −10

Same assay, conditions: read-out: HCT116 pERK IC50; HCT116 cells; class symbol

SMILES | IC50 [µM]
Cc1c(F)cccc1S(=O)(=O)Nc1ccc(F)c(Nc2ncnc3ccc(-n4ncc5c4CN(C(=O)CN)CC5)nc23)c1F | 1 to 10
COc1nccc2c1ncn2-c1ccc2ncnc(Nc3c(F)ccc(NS(=O)(=O)c4cccc(Cl)c4Cl)c3F)c2n1 | 0.5 to 1
Cc1c(F)cccc1S(=O)(=O)Nc1ccc(F)c(Nc2ncnc3ccc(-n4cc(S(=O)(=O)N5CCOCC5)c5ccccc54)nc23)c1F | < 0.5
O=S(=O)(Nc1ccc(F)c(Nc2ncnc3ccc(-n4cc(S(=O)(=O)C5CCOCC5)c5ccccc54)nc23)c1F)c1cccc(Cl)c1Cl | < 0.5
O=S(=O)(Nc1ccc(F)c(Nc2ncnc3ccc(-n4cc(S(=O)(=O)C5CCN(Cc6cn[nH]c6)CC5)c5ccccc54)nc23)c1F)c1cccc(Cl)c1Cl | < 0.5
CCS(=O)(=O)c1cn(-c2ccc3ncnc(Nc4c(F)ccc(NS(=O)(=O)c5cccc(Cl)c5Cl)c4F)c3n2)c2ccccc12 | < 0.5
Cc1c(F)cccc1S(=O)(=O)Nc1ccc(F)c(Nc2ncnc3ccc(-n4cc(S(=O)(=O)N(C)Cc5ccncc5)c5ccccc54)nc23)c1F | < 0.5
Cc1c(F)cccc1S(=O)(=O)Nc1ccc(F)c(Nc2ncnc3ccc(-n4nnc5ccccc54)nc23)c1F | < 0.5
O=S(=O)(Nc1ccc(F)c(Nc2ncnc3ccc(-n4ccnn4)nc23)c1F)c1cccc(Cl)c1Cl | < 0.5
COc1ccc(S(=O)(=O)Nc2ccc(F)c(Nc3ncnc4ccc(-n5cnc6c(N)cccc65)nc34)c2F)c(C)c1F | < 0.5
Cc1c(Cl)cccc1S(=O)(=O)Nc1ccc(F)c(Nc2ncnc3ccc(-n4cc(S(=O)(=O)N(C)CCN(C)C)c5ccccc54)nc23)c1F | < 0.5
Cc1c(F)cccc1S(=O)(=O)Nc1ccc(F)c(Nc2ncnc3ccc(-n4nc(C(=O)NC(C)c5ccccn5)c5ccccc54)nc23)c1F (stereo not shown) | 1 to 10
Cc1c(F)cccc1S(=O)(=O)Nc1ccc(F)c(Nc2ncnc3ccc(-n4nc(C(=O)N5CCNCC5)c5ccccc54)nc23)c1F | < 0.5
O=S(=O)(Nc1ccc(F)c(Nc2ncnc3ccc(-n4cc(S(=O)(=O)NC5COC5)c5ccccc54)nc23)c1F)c1cccc(Cl)c1Cl | < 0.5
CN(C)CCNS(=O)(=O)c1cn(-c2ccc3ncnc(Nc4c(F)ccc(NS(=O)(=O)c5cccc(Cl)c5Cl)c4F)c3n2)c2ccccc12 | < 0.5
CC1(NS(=O)(=O)c2cn(-c3ccc4ncnc(Nc5c(F)ccc(NS(=O)(=O)c6cccc(Cl)c6Cl)c5F)c4n3)c3ccccc23)COC1 | < 0.5
O=S(=O)(Nc1ccc(F)c(Nc2ncnc3ccc(-c4cnc(-c5ccccc5)[nH]4)nc23)c1F)c1cccc(Cl)c1Cl | 1 to 10
Cc1c(F)cccc1S(=O)(=O)Nc1ccc(F)c(Nc2ncnc3ccc(-n4cc(C(=O)N5CCC(C)(O)CC5)c5ccccc54)nc23)c1F | < 0.5
O=S(=O)(Nc1ccc(F)c(Nc2ncnc3ccc(-n4cnc5c(N6CC[C@H](O)C6)cccc54)nc23)c1F)c1cccc(Cl)c1Cl | < 0.5
Nc1cccc2c1ncn2-c1ccc2ncnc(Nc3c(F)ccc(NS(=O)(=O)c4cccc5c4OC(F)(F)O5)c3F)c2n1 | 1 to 10
Nc1cccc2c1ncn2-c1ccc2ncnc(Nc3c(F)ccc(NS(=O)(=O)c4cccc(F)c4C(F)(F)F)c3F)c2n1 | < 0.5
Cc1c(F)cccc1S(=O)(=O)Nc1ccc(F)c(Nc2ncnc3ccc(-n4cc(S(=O)(=O)N5CCC(O)CC5)c5ccccc54)nc23)c1F | < 0.5
COCCNS(=O)(=O)c1cn(-c2ccc3ncnc(Nc4c(F)ccc(NS(=O)(=O)c5cccc(Cl)c5Cl)c4F)c3n2)c2ccccc12 | < 0.5
O=S(=O)(Nc1ccc(F)c(Nc2ncnc3ccc(-n4cnc5c(NC6CCOCC6)cccc54)nc23)c1F)c1cccc(Cl)c1Cl | 1 to 10
Nc1cccc2c1ncn2-c1ccc2ncnc(Nc3c(F)ccc(NS(=O)(=O)c4scc(Cl)c4Cl)c3F)c2n1 | < 0.5
CN(C1CCOC1)S(=O)(=O)c1cn(-c2ccc3ncnc(Nc4c(F)ccc(NS(=O)(=O)c5cccc(Cl)c5Cl)c4F)c3n2)c2ccccc12 (stereo not shown) | 0.5 to 1
O=S(=O)(Cc1ccc(F)cc1)c1cn(-c2ccc3ncnc(Nc4c(F)ccc(NS(=O)(=O)c5cccc(Cl)c5Cl)c4F)c3n2)c2ccccc12 | 0.5 to 1
Cc1c(F)cccc1S(=O)(=O)Nc1ccc(F)c(Nc2ncnc3ccc(-n4nc(C(=O)N(C)Cc5ccncc5)c(C)c4C)nc23)c1F | < 0.5

The next lines start with the values.

IC50 [µM] | SMILES
< 0.5 | CC(C)(O)[C@@H]1CCCN1S(=O)(=O)c1cn(-c2ccc3ncnc(Nc4c(F)ccc(NS(=O)(=O)c5cccc(Cl)c5Cl)c4F)c3n2)c2ccccc12
0.5 to 1 | NS(=O)(=O)c1cn(-c2ccc3ncnc(Nc4c(F)ccc(NS(=O)(=O)c5cccc(Cl)c5Cl)c4F)c3n2)c2ccccc12
< 0.5 | Cc1c(F)cccc1S(=O)(=O)Nc1ccc(F)c(Nc2ncnc3ccc(-n4cc(C(=O)N(C)C)c5ccccc54)nc23)c1F
< 0.5 | O=S(=O)(Nc1ccc(F)c(Nc2ncnc3ccc(-n4cc(S(=O)(=O)C5CCCC5)c5ccccc54)nc23)c1F)c1cccc(Cl)c1Cl
< 0.5 | CN([C@H]1CCOC1)S(=O)(=O)c1cn(-c2ccc3ncnc(Nc4c(F)ccc(NS(=O)(=O)c5cccc(Cl)c5Cl)c4F)c3n2)c2ccccc12
< 0.5 | CN(c1cccnc1)S(=O)(=O)c1cn(-c2ccc3ncnc(Nc4c(F)ccc(NS(=O)(=O)c5cccc(Cl)c5Cl)c4F)c3n2)c2ccccc12
< 0.5 | CCc1c(F)cccc1S(=O)(=O)Nc1ccc(F)c(Nc2ncnc3ccc(-n4cnc5c(N)cccc54)nc23)c1F
< 0.5 | O=S(=O)(Nc1ccc(F)c(Nc2ncnc3ccc(-n4cnc5c(Cl)nccc54)nc23)c1F)c1cccc(Cl)c1Cl
< 0.5 | O=S(=O)(Nc1ccc(F)c(Nc2ncnc3ccc(-n4cnc5c(N6CCC(C(F)(F)F)CC6)cccc54)nc23)c1F)c1cccc(Cl)c1Cl
< 0.5 | Cc1c(F)cccc1S(=O)(=O)Nc1ccc(F)c(Nc2ncnc3ccc(-n4cnc5c(C(N)=O)cccc54)nc23)c1F
0.5 to 1 | O=S(=O)(Nc1ccc(F)c(Nc2ncnc3ccc(-n4cnc(C(F)(F)F)c4)nc23)c1F)c1cccc(Cl)c1Cl
0.5 to 1 | Cc1c(C(F)(F)F)cccc1S(=O)(=O)Nc1ccc(F)c(Nc2ncnc3ccc(-n4cnc5c(N)cccc54)nc23)c1F
< 0.5 | C[C@]1(CO)CCCN1S(=O)(=O)c1cn(-c2ccc3ncnc(Nc4c(F)ccc(NS(=O)(=O)c5cccc(Cl)c5Cl)c4F)c3n2)c2ccccc12
0.5 to 1 | CN(C)CCN(C)S(=O)(=O)c1ccn(-c2ccc3ncnc(Nc4c(F)ccc(NS(=O)(=O)c5cccc(Cl)c5Cl)c4F)c3n2)c1
1 to 10 | O=S(=O)(Nc1ccc(F)c(Nc2ncnc3ccc(-n4cnc(-c5ccccc5)c4)nc23)c1F)c1cccc(Cl)c1Cl
< 0.5 | Nc1cccc2c1ncn2-c1ccc2ncnc(Nc3c(F)ccc(NS(=O)(=O)c4cccc(Cl)c4C(F)(F)F)c3F)c2n1
< 0.5 | O=S(=O)(Nc1ccc(F)c(Nc2ncnc3ccc(-n4cc(S(=O)(=O)N5CC(CO)C5)c5ccccc54)nc23)c1F)c1cccc(Cl)c1Cl
1 to 10 | Cc1nc(-c2ccc3ncnc(Nc4c(F)ccc(NS(=O)(=O)c5cccc(Cl)c5Cl)c4F)c3n2)cs1
< 0.5 | Cc1c(F)cccc1S(=O)(=O)Nc1ccc(F)c(Nc2ncnc3ccc(-n4cnc5c(N6CCC(C)(O)CC6)cccc54)nc23)c1F
< 0.5 | Cc1c(F)cccc1S(=O)(=O)Nc1ccc(F)c(Nc2ncnc3ccc(-n4nc(C(=O)N5C6CCC5CN(C)C6)c5ccccc54)nc23)c1F
< 0.5 | CC(C)(C)CCN1CCC(S(=O)(=O)c2cn(-c3ccc4ncnc(Nc5c(F)ccc(NS(=O)(=O)c6cccc(Cl)c6Cl)c5F)c4n3)c3ccccc23)CC1
< 0.5 | Cc1c(F)cccc1S(=O)(=O)Nc1ccc(F)c(Nc2ncnc3ccc(-n4nc(C(=O)N(C)Cc5cnccn5)c5ccccc54)nc23)c1F

Same assay, conditions: read-out: HCT116 pERK IC50 in μM; HCT116 cells, 1 h treatment

SMILES | IC50 [µM]
Cc1ccc(S(=O)(=O)Nc2ccc(F)c(Nc3ncnc4ccc(-n5cnc6ccccc65)nc34)c2F)c(C)c1F | < 0.5
